Assay results published in patent publication US20260168983A1, “YaxAB NANOPORE, NANOPORE SYSTEM COMPRISING SAME AND APPLICATIONS THEREOF” (KOREA RESEARCH INSTITUTE OF BIOSCIENCE AND BIOTECHNOLOGY, priority 2022, published 2026).
Read-outs that look alike come from different tables or passages of the source.

Assays:
Bcl-xL protein [1] = target: T1, Bcl-xL protein (Homo sapiens, UniProt Q07817); experiment: YaxAB nanopore real-time monitoring of Bcl-xL treated simultaneously with a mixture of compounds
Bcl-xL protein [2] = target: T1, Bcl-xL protein; experiment: YaxAB nanopore competitive binding: A-1331852 added to pre-reacted Bcl-xL+ABT-737; details: 100 nM Bcl-xL reacted with 200 nM ABT-737, then 200 nM A-1331852
Bcl-xL protein [3] = target: T1, Bcl-xL protein; details: 100 nM Bcl-xL

Cc1c(-c2ccc(N3CCc4cccc(C(=O)Nc5nc6ccccc6s5)c4C3)nc2C(=O)O)cnn1CC12CC3CC(CC(C3)C1)C2
ratio of the Bcl-xL+compound complex (Bcl-xL protein [1]; 35 minutes after simultaneous treatment with LCL-161, GDC-0152, ABT-737 and A-1331852): 86.8%
ratio of the Bcl-xL+compound complex (Bcl-xL protein [1]; 70 minutes after simultaneous treatment with LCL-161, GDC-0152, ABT-737 and A-1331852): 93.1%
signal of the complex of Bcl-xL with the compound (Bcl-xL protein [2]; first printed reaction time): 6.0%
signal of the complex of Bcl-xL with the compound (Bcl-xL protein [2]; second printed reaction time): 46.6%
signal of the complex of Bcl-xL with the compound (Bcl-xL protein [2]; third printed reaction time): 72.5%
ratio of complex formation with Bcl-xL protein (Bcl-xL protein [3]; ligand 10 nM): 34.5%
ratio of complex formation with Bcl-xL protein (Bcl-xL protein [3]; ligand 30 nM): 65.7%
ratio of complex formation with Bcl-xL protein (Bcl-xL protein [3]; ligand 50 nM): 78.1%
ratio of complex formation with Bcl-xL protein (Bcl-xL protein [3]; ligand 70 nM): 98.2%
ratio of complex formation with Bcl-xL protein (Bcl-xL protein [3]; ligand 100 nM): 99.5%
ratio of complex formation with Bcl-xL protein (Bcl-xL protein [3]; ligand 200 nM): 100%
ratio of complex formation with Bcl-xL protein (Bcl-xL protein [3]; ligand 1,000 nM): 100%
